This note sets out measurements from patent US5863950A, “HIV protease inhibitors” (Agouron Pharmaceuticals, Inc., priority 1994, dated 1999).

The test has as its target T1, HIV-1 protease (Human immunodeficiency virus type 1 group M subtype B, UniProt P04585).
T1 construct: purified HIV-1 protease
As to the kind of experiment: biochemical. In kind it is biochemical. The procedure: 1. Proteolytic activity of purified HIV-1 protease was routinely measured using the chromogenic assay developed by Richards et al. (J. Biol. Chem. 265: 7733 (1990)). Synthetic peptide His-Lys-Ala-Arg-Val-Leu-Phe (pNO2)-Glu-Ala-Nle-Ser-NH2 (American Peptide Company) was used as the substrate.
2. The assay was carried out in 0.5M NaCl, 50 mM MES pH 5.6, 2% DMSO (dimethylsulfoxide) at 37° C. Cleavage of the scissile bond between leucine and paranitro-phenylalanine (Phe(pNO2)) was assayed by spectrophotometric monitoring of the decrease in absorbance at 305 nm. Initial velocity was determined as the rate of decline of absorbance during the first 100 seconds of reaction.
3. […] Between 15-25 concentrations of inhibitor were added and velocity of reaction was measured at each of the concentrations, as described above.
4. Inhibition constants were calculated using the method of Jackson et al. (Adv. in Enzyme Regulation 22: 187 (1984)).

Turning to `CCC1(N(CCO)C(=O)c2ccccc2CC[C@H](O)Cc2ccc(C)cc2C(=O)N(CCO)C(C)(C)c2ccccc2)CCCC1` [Example 116b], the “activity against the HIV protease enzyme” value is recorded as “less active”.
On to `CCC1(N(CCO)C(=O)c2ccccc2CCC(O)Cc2ccc(C)cc2C(=O)N(CCO)C(C)(C)c2ccccc2)CCCC1` (centres unmarked) [Example 18], for which the IC50 amounted to 89 nM. That is a double-digit nanomolar value.
For the compound `CCC1(N(CCO)C(=O)c2ccccc2CC[C@@H](O)Cc2ccc(C)cc2C(=O)N(CCO)C(C)(C)c2ccccc2)CCCC1` [Example 116a], the “activity against the HIV protease enzyme” value is reported as “more active”.
Consider `CCC1(N(CCO)C(=O)c2ccccc2CC[C@@H](O)Cc2ccc(C)cc2C(=O)N(CCO)C(C)(C)c2ccccc2)CCCC1` [Example 112], for which the IC50 stood at 76 nM and affinity was put at a Ki of 2.5 nM.
